## AlphaSeq binding of Ab-14 heavy chain variants to a spike HR2 peptide

From the AlphaSeq antibody data of Li et al. 2023 (doi:10.1038/s41467-023-39022-2), copy in the FLAb collection.

Antigen: PDVDLGDISGINAS, a 14-residue peptide of the SARS-CoV-2 spike HR2 region.

Ab-14 is the parent antibody, in scFv form: VH, then a (GGGGS)3 linker, then VL. The light chain is unchanged in all variants.
VH: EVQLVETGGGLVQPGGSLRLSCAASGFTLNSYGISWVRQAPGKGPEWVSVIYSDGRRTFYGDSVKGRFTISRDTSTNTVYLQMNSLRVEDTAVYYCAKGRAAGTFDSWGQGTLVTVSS
VL: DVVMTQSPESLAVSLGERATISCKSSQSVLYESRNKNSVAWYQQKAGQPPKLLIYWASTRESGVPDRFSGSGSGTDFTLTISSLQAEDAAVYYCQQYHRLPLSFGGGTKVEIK

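The variants were designed computationally from a first round of random CDR variants and then made and measured. Group labels follow the data file (Ctrl: baseline library sampled from a position-specific scoring matrix, with some repeated check sequences; Rand: our label for a block that the file lists under HC and that is probably the random mutants of the ten best first-round binders; En: ensemble of fine-tuned language models; GP: Gaussian process model; GPLM: also part of the Gaussian process libraries; HC: hill climbing; Gen: genetic algorithm; Gibbs: Gibbs sampling; a sequence that several methods proposed may carry one label only). The assay is AlphaSeq: two haploid yeast populations carry antibody and antigen on their surface. Pairs that bind mate more often; barcode pairs of the diploids are counted by sequencing. Scores were corrected for input abundance and mapped to Kd with protein pairs of known affinity run in the same pool. Mating was done six times.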

Changes read parent residue, position, new residue, counted from the first residue of the VH shown. Variants here have at most six changes. The Kd shown is the geometric mean over detected replicates; a lower Kd is a better binder. "no signal" marks a missing value. The strain was present, yet no cells mated with the target were sequenced in any replicate, which points to weak or no binding.

changes	group	Kd (apparent)	replicates with signal
S31E/R56Q/F59A/G61S/S107Y	Ctrl	1.8 nM	6 of 6
G103C	Ctrl	120 nM	1 of 6
T28S/G61S/A101Q	GPLM_Gibbs	1.1 nM	6 of 6
G61L/R100M/G103C	Ctrl	no signal	0 of 6
T28D/S63R/R100N	GP_Gen	3.0 nM	5 of 6
T28D/S63Q/R100K/A101N	GP_Gen	1.4 nM	6 of 6
S53A/T58N/F105S	Ctrl	no signal	0 of 6
T28W/S31E/A101Q/S107A	GP_Gen	26 nM	6 of 6
T28D/V64L/T104W/D106N	Rand	no signal	0 of 6
T28E/R100A/A101T	GPLM_Gen	2.9 nM	6 of 6
T28E/S31D/A101M	GP_HC	1.4 nM	6 of 6
S53A/S63N/R100E/S107K	GP_Gibbs	650 pM	6 of 6
G26S/T28S/R100Q	GPLM_Gen	120 nM	1 of 6
T28D/F59A/S63R	GP_Gen	990 pM	6 of 6
F27K/T28S/G61A/S63H/A101T	GP_Gibbs	450 nM	1 of 6
T28Q/S31E/G61H/R100K	GPLM_Gen	560 pM	6 of 6
T28S/S31E/G103Q	Ctrl	no signal	0 of 6
T28E/S31T/G61A/R100Q	GPLM_Gen	3.1 nM	6 of 6
T28D/R56K/A101V	GP_Gen	8.0 nM	6 of 6
S31Q/I34K/F59S/G61S/T104F	Rand	no signal	0 of 6
T28S/S63Q/A101N	GP_Gen	12 nM	6 of 6
S31D/F59Q/G61K/G103C	Rand	no signal	0 of 6
G26M/T28D/G61I/R100Q/S107V	GP_Gibbs	1.1 nM	6 of 6
S53R/G99H/R100F/A101E/D106P	Ctrl	no signal	0 of 6
N30C/S31E/G55L/Y60P/G61T/A101F	Rand	no signal	0 of 6
T28S/S31E/A101I/D106I	GP_HC	no signal	0 of 6
R56K/G61A/R100Q	GPLM_Gen	240 nM	3 of 6
S31E/A101W/S107D	GP_HC	33 nM	5 of 6
T28E/G61A/R100Q/A101E	GPLM_Gibbs	630 pM	6 of 6
S31E/G61I/A101T	GPLM_Gen	2.1 nM	6 of 6
N30D/D54L/F105A/D106L	Rand	no signal	0 of 6
S31K/G103V/T104L	Ctrl	no signal	0 of 6
S31K/S53A/G61D/D106I	Ctrl	910 pM	6 of 6
T28S/S31M/G61S/R100Q	GPLM_Gen	2.5 nM	6 of 6
T28S/S53A/G103D	GP_HC	no signal	0 of 6
S31E/G61D/A101C	GP_HC	22 nM	6 of 6
T28D/S53A/S107V	GP_Gen	500 pM	6 of 6
T28S/G61A/A101T/S107L	GPLM_Gen	1.7 nM	5 of 6
F27N/S63K/G99T	Ctrl	no signal	0 of 6
R56M/K65R/R100T	Ctrl	1.7 nM	6 of 6
T28M/T104W/D106N	Rand	no signal	0 of 6
S31D/D62G/A101Q/F105V	Ctrl	no signal	0 of 6
R100E/D106R	Ctrl	680 nM	1 of 6
S53A/A101V/S107V	GPLM_Gibbs	1.2 nM	4 of 6
T28Q/S31D/G61I	GPLM_HC	3.7 nM	5 of 6
T28D/S31M/G61H/R100Q/A101T	GP_Gibbs	810 pM	6 of 6
F27T/N30L/G61Q/S63N	Ctrl	no signal	0 of 6
Y60W/R100F	Ctrl	no signal	0 of 6
N30E/S31E/A101V	Ctrl	no signal	0 of 6
T28E/S31E/G61A/R100K	GP_Gen	510 pM	6 of 6
S31D/R100K/D106E	GP_HC	230 nM	4 of 6
S31E/S53A/A101L	GP_HC	590 pM	6 of 6
T28S/R100Q/S107R	GPLM_Gen	27 nM	1 of 6
S31E/G61S/A101E/S107V	GP_HC	270 pM	6 of 6
T28Q/G61V/A101L/S107T	GP_Gibbs	no signal	0 of 6
T28N/G61A/S63K/A101E	GP_Gen	1.2 nM	6 of 6
S35H/A102E/T104E	Ctrl	no signal	0 of 6
G26S/T28S/R100Q/A101T	GPLM_Gen	110 nM	2 of 6
T28D/R100H/S107K	GP_Gen	4.6 nM	5 of 6
A101T/T104S/D106T/S107T	GP_HC	no signal	0 of 6
G26L/S31E/G61V/A101T	GP_HC	600 pM	6 of 6
T28D/S31E/S53A/G61A/R100Q/S107I	En_HC	1.9 nM	6 of 6

The closing 5 entries, repeated:

changes	group	Kd (apparent)	replicates with signal
G26S/T28S/R100Q/A101T	GPLM_Gen	110 nM	2 of 6
T28D/R100H/S107K	GP_Gen	4.6 nM	5 of 6
A101T/T104S/D106T/S107T	GP_HC	no signal	0 of 6
G26L/S31E/G61V/A101T	GP_HC	600 pM	6 of 6
T28D/S31E/S53A/G61A/R100Q/S107I	En_HC	1.9 nM	6 of 6

Of ten entries with the parent sequence, four were seen in most replicates (averages 2.2 nM to 240 nM), three in one and three in none, so single entries are noisy. In the paper, a design with two or fewer of six values counts as a poor binder. Background: pairings of all heavy chain designs with three empty control strains gave a value in 1% of cases (median 120 nM, 5th percentile 7.0 nM). Values in that range, when seen in few replicates, are hard to tell from nonspecific mating. Values of this round are not directly comparable with the first-round values of the same sequences.